Measured values taken from ChEMBL document CHEMBL1125885, “Dopamine autoreceptor agonists as potential antipsychotics. 3.6-Propyl-4,5,5a,6,7,8-hexahydrothiazolo[4,5-f]quinolin-2-amine” (J Med Chem, 1991).

Chains of the proteins cited; added tags and fusions are not shown.
UniProt P61169, whole entry: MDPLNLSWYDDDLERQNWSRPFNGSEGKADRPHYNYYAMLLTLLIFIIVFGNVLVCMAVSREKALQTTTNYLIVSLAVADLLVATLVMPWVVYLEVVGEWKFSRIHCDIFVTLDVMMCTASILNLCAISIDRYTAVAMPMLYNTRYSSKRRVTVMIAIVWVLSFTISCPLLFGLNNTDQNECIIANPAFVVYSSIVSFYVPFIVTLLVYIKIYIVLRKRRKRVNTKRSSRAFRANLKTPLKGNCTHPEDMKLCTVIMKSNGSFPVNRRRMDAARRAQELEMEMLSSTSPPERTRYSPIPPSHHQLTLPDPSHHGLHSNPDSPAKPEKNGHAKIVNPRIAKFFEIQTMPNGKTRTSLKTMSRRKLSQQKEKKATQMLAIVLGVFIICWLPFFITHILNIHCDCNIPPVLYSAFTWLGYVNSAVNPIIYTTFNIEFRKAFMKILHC

Target: D(2) dopamine receptor (Rattus norvegicus, UniProt P61169)
Assay: Binding affinity towards dopamine receptor D2 in rat striatal membrane using [3H]spiperone
Format: cell membranes, Striatum

CCCN1CCC=C2c3nc(N)sc3CC[C@@H]21 (stereo in doubt; (-)-6)
IC50: 2240 nM

CCCN1CCC=C2c3nc(N)sc3CCC21 (racemic)
IC50: 2200 nM

CCCN1CCC=C2c3nc(N)sc3CC[C@@H]21 (stereo in doubt; (+)-6)
IC50: 860 nM
